In patent US9296748B2, “Pyridinones” (Boehringer Ingelheim International GmbH, priority 2013, dated 2016):

Target: BRD4-BD1 (Homo sapiens (Human), UniProt O60885)
Experiment: BRD4-H4 Tetraacetylated Peptide Inhibition AlphaScreen
Type: binding
Conditions: read-out: BRD4-BD1 IC50; GST-BRD4-BD1 (aa 44-168), biotinylated Acetyl-Histone H4 peptide
Method: Compounds are diluted in serial dilution 1:5 in assay buffer from 10 mM stock in DMSO (100 μM start concentration) in white OptiPlate-384 (PerkinElmer). […] Subsequently, 6 μl of premixed AlphaLISA Glutathione Acceptor Beads and AlphaScreen Streptavidin Donor Beads from PerkinElmer (in assay buffer at a concentration of 10 μg/ml each) are added and the samples are incubated for 30 min at RT in the dark (shaking 300 rpm). Afterwards, the signal is measured in a PerkinElmer Envision HTS Multilabel Reader using the AlphaScreen protocol from PerkinElmer. […] Negative control values are entered as low basis value when using the software GraphPad Prism for calculations. Furthermore, a positive control (probe molecule JQ1+ with protein/peptide mix) is pipetted. Determination of IC50 values are carried out using GraphPad Prism 3.03 software (or updates thereof).

Cc1cc(-c2nc3ccc(OC4CCOC4)nc3n2C(C)c2ccccn2)cn(C)c1=O (stereo not shown)
IC50: 200 nM
